Our source for the IC50 values is patent publication US10906905B2, “Five-membered heteroaryl ring bridged ring derivative, preparation method therefor and medical use thereof” (Jiangsu Hengrui Medicine Co., Ltd., priority 2016, dated 2021).

The subject of the assay is Smad signaling pathway of TGFβRI. Briefly: Inhibition of Smad signaling pathway of TGFβRI (3TP-lux luciferase reporter in HepG2 cell). The assay is classed as cell-based. Particulars: Homo sapiens, HepG2, 18 h, read-out: IC50 on the inhibition of Smad signaling pathway of TGFβRI. As to the method: The inhibition effect of the compounds of the present invention on Smad signaling pathway of TGFβRI was determined by the following in vitro test.
The inhibition effect of the compounds of the present invention on Smad signaling pathway of TGFβRI was determined by the following experimental method:
On a 96-well plate, 100 μL of HepG2 cell (TCHu 72, Cell Bank of Typical Culture Collection Committee of Chinese Academy of Sciences) was seeded on an EMEM medium containing 10% FBS (42360-099, Gibco) in each well. The seeding density is 2.5×10^4 cells/well. The cells were incubated overnight at 37° C., 5% CO2. Each well was replaced with fresh EMEM medium containing 10% FBS. 0.1 g of 3TP-lux plasmid (11767, Biovector Science Lab, Inc.) was transfected in each well. The cells were further incubated for 24 hours at 37° C., 5% CO2. Each well was replaced with 90 μL of EMEM medium containing 0.5% FBS, then the cells were starved for 6 hours. The compounds were formulated as a 20 mM stock solution, which was diluted in gradient to a 400× concentration with 100% DMSO, and further 40-fold diluted with EMEM containing 0.5% FBS. […] The chemiluminescence signal values were measured with a Victor 3.0 (PerkinElmer). The IC50 values of the compounds were calculated using Graphpad Prism software based on each concentration of the compound and the corresponding signal value thereof.

As to `Cc1cccc(-c2nc3n(c2-c2ccnc(-c4ccc(C(=O)NC5CCOCC5)cc4)c2)C2CCC3C2)n1` (stereo not shown) [Example 17, 4-(4-(2-(6-Methylpyridin-2-yl)-5,6,7,8-tetrahydro-5,8-methanoimidazo[1,2-a]pyridin-3-yl)pyridin-2-yl)-N-(tetrahydro-2H-pyran-4-yl)benzamide], the IC50 came out at 0.096 µM.
